In patent US11311624B2, “Inhibitors of MEK/PI3K, JAK/MEK, JAK/PI3K/mTOR and MEK/PI3K/mTOR biological pathways and methods for improving lymphatic uptake, bioavailability, and solubility of therapeutic compounds” (THE REGENTS OF THE UNIVERSITY OF MICHIGAN, priority 2017, dated 2022) one finds lymphatic targeting data, which are given here for one compound.

SMILES strings stand for the structures.

A short description of the data set: In vivo lymph targeting of prodrug ST-65.

Consider `COc1ccc(-c2ccc3c(N4CCOCC4C)nc(N4CCOCC4C)nc3n2)cc1COC(=O)CCOCCOCCOCCONC(=O)c1ccc(F)c(F)c1Nc1ccc(I)cc1F` (stereo not shown), for which the lymphatic targeting entry is reported as “high lymphatic targeting”.
